Test system: BALB/c mice
Assay: In vivo toxicity, single IV escalating dose
Conditions: as formulated siRNA, Ampholip1 up to 10 mg/kg, Ampholip2 up to 5 mg/kg, 24 hours and 7 days
Method: Each group comprised six (6) males and six (6) females BALB/cOlaHsd mice, where half of each group (3 males and 3 females) were assigned to 24 hours or 7 days termination time points, respectively. Animals were subjected to clinical hematology and biochemistry assessment at 24 hours and 7 days post dosing, followed by gross macroscopic examination. The following parameters were evaluated for toxicity: mortality, clinical signs, body weight, weight gain, hematology and biochemistry tests.

1,2-di-glutamate-di-steroyl glycerol carbamoyl spermine [Ampholip 1]
gross pathological findings: no gross pathological findings

Reference: patent publication US10722599B2, “Lipid assemblies and uses thereof and some pH and electrostatic modulating lipids to be used in said assemblies” (Yissum Research Development Company of the Hebrew …, priority 2015, dated 2020)
